# Reference: patent US4374245A, “8-[3-(6-Fluoro-1,2-benzisoxazol-3-yl)propyl]- 1-phenyl-1,3,8-triazaspiro[4.5]decan-4-one” (Hoechst-Roussel Pharmaceuticals Inc., priority 1982, dated 1983)
# Test system: apomorphine-induced climbing
# Assay: climbing mice assay (apomorphine-induced climbing, antipsychotic activity)
# Format: in vivo, CK-1 male mice
# Settings: intraperitoneal, 30 minutes prior to apomorphine 1.5 mg/kg subcutaneously, climbing scored at 10, 20 and 30 minutes, linear regression
compound,measurement,value
Cl.O=C1NCN(c2ccccc2)C12CCN(CCCc1noc3cc(F)ccc13)CC2,Antipsychotic Activity ED50,0.10 mg/kg
